Experimental data published in ChEMBL document CHEMBL3526069, “Human pharmacokinetic prediction of UDP-glucuronosyltransferase substrates with an animal scale-up approach” (Drug Metab Dispos, 2011).

How the values were obtained:
Nucleic Acid [1] = settings: dog, in vivo
Nucleic Acid [2] = settings: mouse, in vivo
Nucleic Acid [3] = settings: human, plasma
Nucleic Acid [4] = settings: rat, in vivo
Nucleic Acid [5] = settings: rhesus monkey, in vivo

Rblood_plasma (Nucleic Acid [1]): 1.46 | Rblood_plasma (Nucleic Acid [2]): 0.96 | Rblood_plasma (Nucleic Acid [3]): 0.7 | Rblood_plasma (Nucleic Acid [4]): 1.33 | Rblood_plasma (Nucleic Acid [5]): 1.13
SMILES: NS(=O)(=O)c1cc(C(=O)O)c(NCc2ccco2)cc1Cl [FUROSEMIDE]
